This experiment concerns E. coli BW25113-Wt cells containing pCyn-v2-GFP. The experiment is described as follows: Azide biosensor cells (pCyn-v2-GFP) incubated with glucosyl azides, GFP fluorescence of cell lysate. Particulars: 4 hours incubation, after the first hour.

This note sets out measurements from patent US12655461B2 (priority 2020, dated 2026).

`[N-]=[N+]=NC1(N=[N+]=[N-])O[C@H](CO)[C@@H](O)[C@H](O)[C@H]1O` (some centres unmarked): the “change in GFP fluorescence after incubation with glucosyl azide” value was “rapid increase in fluorescence”. On to `[N-]=[N+]=N[C@@H]1[C@@H](O)[C@H](O)[C@@H](CO)O[C@H]1N=[N+]=[N-]`, for which the “change in GFP fluorescence after incubation with glucosyl azide” value is given as “No change in fluorescence”.
